# Source: US20050266014A1, “Tumor antigen based on products of the tumor suppressor gene WT1” (HARUO SUGIYAMA, priority 1998, published 2005)
# Columns and labels:
# FBL3 leukemia cells = assay: In vivo tumor immunity: immunization and challenge with FBL3 leukemia cells, Example 8; parameters: species or system mice
# induced CTL = assay: FACS analysis of surface markers of induced CTL, Example 3; assay type: cell-based; details: human CTL, FIGS. 5 to 10
# Experimental: One week later, T2 cells that were irradiated after incubating for 1 hour with the peptide (20 μg/ml) were added to the above culture system for restimulation. From the following day, human IL-2 (final concentration 100 JRU/ml) was added to the culture.
# Subsequently, after repeating, for five times, stimulation with the T2 cells that were irradiated after being pulsed with the peptide, a killing assay was performed using, as the target, the T2 cells pulsed with the peptide or the T2 cells not pulsed with the peptide. The surface markers of the induced CTL were subjected to FACS analysis.
# [1] = system: FBL3 cells that inherently express WT1; assay: Specific lysis by D^b 126 peptide-specific CTL, Example 6; assay type: cell-based, mouse; details: FIG. 13
# [2] = system: RMA cells that do not express WT1; assay: as above; assay type: cell-based, mouse; details: FIG. 13
# RMA-S cells = assay: Killing assay, Example 2: lymph node cells of mice given peptide-pulsed dendritic cells against 51Cr-labeled RMA-S cells; assay type: cell-based, C57BL/6 mice; details: FIGS. 2 and 3
# Experimental: Dendritic cells (DC) derived from the bone marrow of the C57BL/6 mice were prepared in the following manner. According to the standard method, the bone marrow cells were cultured in the presence of GM-CSF to prepare bone marrow-derived dendritic cells (J. Exp. Med. 182: 255, 1995).
# Then, the above DC cells were intradermally injected to the foot pads and hands of C57BL/6 mice, and on day 5 the lymph nodes were removed to prepare cell suspensions.
# Then the above cell suspension derived from the relevant lymph node and the B7.1-RMA-S cells were mixed and cultured for in vitro restimulation.
# Then, on day 5 after the in vitro restimulation, a killing assay was performed using the ^51Cr-labeled RMA-S cells as the target. When ⅛ of the total lymphocytes recovered on day 5 after restimulation was used as the effector cell, the E/T ratio was set as the highest one (1.0).
# [3] = system: EL-4 cells (expressing K^b and D^b); assay: Killing assay, Example 1: spleen cells of peptide-immunized mice against Europium labeled EL-4 cells; assay type: cell-based, C57BL/6 mice; details: for cytocidal effect (killing assay): E/T ratio 40:1
# Experimental: One week after the immunization treatment, the mouse spleen was extracted, from which suspensions of spleen cells were prepared.
# The above immunized spleen cells and the irradiated spleen cells were co-cultured for 5 days to induce or prepare killer T cells.
# spleen cells = assay: Flow cytometry of CD4 and CD8 expression on immunized spleen cells, Example 1; assay type: cell-based, C57BL/6 mice; details: compared to non-immunized control spleen cells, FIG. 1
# [4] = system: mouse cells immunized with the D^b 126 peptide; assay: Flow cytometry of the CD4+/CD8+ ratio, Example 2; assay type: cell-based, C57BL/6 mice; details: compared to non-immunized mouse (control) cells
# [5] = system: C1498 cells transfected with the WT1 gene; assay: Specific lysis by D^b 126 peptide-specific CTL, Example 6; assay type: cell-based, mouse; details: WT1-transfected C1498 vs parent C1498 cells, FIG. 14
structure (smiles),measurement,setting,value
CSCC[C@H](NC(=O)[C@@H](N)CCCNC(=N)N)C(=O)N[C@@H](Cc1ccccc1)C(=O)N1CCC[C@H]1C(=O)N[C@@H](CC(N)=O)C(=O)N[C@@H](C)C(=O)N1CCC[C@H]1C(=O)N[C@@H](Cc1ccc(O)cc1)C(=O)N[C@@H](CC(C)C)C(=O)O [D^b 126],survival after tumor challenge,"FBL3 leukemia cells; LPS-activated spleen cells pulsed with D^b 126 peptide, once every week for 3 weeks, 3×10^7 FBL3 cells intraperitoneally, FIG. 16",overcame tumor challenge and survived
same,ascites after tumor challenge,"FBL3 leukemia cells; immunized mice, from three days after intraperitoneal injection of tumor cells",ascites started to gradually decrease
same,"surface markers of induced CTL (CD4, CD8)",induced CTL,most of the cells were CD8-positive
same,specific lysis by D^b 126 peptide-specific CTL,[1],caused lysis of the FBL3 cells
same,specific lysis by D^b 126 peptide-specific CTL,[2],but not the RMA cells
same,killing of target cells,RMA-S cells; RMA-S target cells not pulsed with the peptide,did not kill the target cells that were not pulsed with said peptide
same,killing of target cells,RMA-S cells; RMA-S target cells pulsed with the peptide,killed the target cells pulsed with said peptide
same,"cytocidal effects, in words",[3]; EL-4 cells not pulsed with D^b 126 as target,few cytocidal effects were observed
same,"cytocidal effects, in words",[3]; EL-4 cells pulsed with D^b 126 as target,cytocidal effects were observed
same,cytocidal effect (killing assay),"[3]; Peptide+ target, Mouse A",76.6%
same,cytocidal effect (killing assay),"[3]; Peptide+ target, Mouse B",37.2%
same,cytocidal effect (killing assay),"[3]; Peptide− target, Mouse A",4.9%
same,cytocidal effect (killing assay),"[3]; Peptide− target, Mouse B",0.9%
same,CD8+ cells in immunized spleen cells,spleen cells,increase in the CD8^+ cells
same,"CD8+ cells, in words",[4],the CD8^+ cells were increased
same,specific lysis by D^b 126 peptide-specific CTL,[5],further killed the C1498 cells transfected with the mouse WT1 gene as compared to the parent C1498 cells
